Sequences of proteins named here, by UniProt entry; tags and fusion partners are left off.
UniProt P21554, whole entry: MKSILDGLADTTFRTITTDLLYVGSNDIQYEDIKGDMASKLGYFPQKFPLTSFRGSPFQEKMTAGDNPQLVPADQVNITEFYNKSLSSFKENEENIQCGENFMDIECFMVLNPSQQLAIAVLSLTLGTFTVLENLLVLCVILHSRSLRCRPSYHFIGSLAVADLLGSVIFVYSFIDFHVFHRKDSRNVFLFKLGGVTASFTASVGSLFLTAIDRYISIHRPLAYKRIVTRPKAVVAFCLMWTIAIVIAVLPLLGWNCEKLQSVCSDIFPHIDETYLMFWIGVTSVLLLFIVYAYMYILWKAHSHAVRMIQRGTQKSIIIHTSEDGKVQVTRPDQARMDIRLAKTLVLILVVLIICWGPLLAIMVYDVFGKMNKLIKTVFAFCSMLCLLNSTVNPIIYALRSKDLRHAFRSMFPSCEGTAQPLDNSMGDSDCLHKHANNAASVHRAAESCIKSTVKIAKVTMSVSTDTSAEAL

According to ChEMBL document CHEMBL1949601, “γ-Carbolines: a novel class of cannabinoid agonists with high aqueous solubility and restricted CNS penetration” (Bioorg Med Chem Lett, 2012):

Assays:
Cannabinoid receptor 1 [1] = biological target: T1, Cannabinoid receptor 1 (Homo sapiens, UniProt P21554); experiment: Agonist activity at human CB1 receptor expressed in HEK293 EBNA cells by [35S]GTPgamma binding assay; assay type: functional, cell-based
Cannabinoid receptor 1 [2] = biological target: T1, Cannabinoid receptor 1; experiment: Displacement of [3H]-CP55,940 from human CB1 receptor expressed in HEK293 cells; assay type: cell-based

CCCCCOc1ccc(C(=O)c2cccc3ccccc23)c2ccccc12
EC50 (Cannabinoid receptor 1 [1]): 72 nM | Ki (Cannabinoid receptor 1 [2]): 35 nM
